{
  "sequences": {"note": "The chains behind the UniProt entries cited, without tags or fusion partners. Where a name states a change or a piece, a line headed by the entry shows the natural chain unless it says otherwise.", "UniProt O42275": "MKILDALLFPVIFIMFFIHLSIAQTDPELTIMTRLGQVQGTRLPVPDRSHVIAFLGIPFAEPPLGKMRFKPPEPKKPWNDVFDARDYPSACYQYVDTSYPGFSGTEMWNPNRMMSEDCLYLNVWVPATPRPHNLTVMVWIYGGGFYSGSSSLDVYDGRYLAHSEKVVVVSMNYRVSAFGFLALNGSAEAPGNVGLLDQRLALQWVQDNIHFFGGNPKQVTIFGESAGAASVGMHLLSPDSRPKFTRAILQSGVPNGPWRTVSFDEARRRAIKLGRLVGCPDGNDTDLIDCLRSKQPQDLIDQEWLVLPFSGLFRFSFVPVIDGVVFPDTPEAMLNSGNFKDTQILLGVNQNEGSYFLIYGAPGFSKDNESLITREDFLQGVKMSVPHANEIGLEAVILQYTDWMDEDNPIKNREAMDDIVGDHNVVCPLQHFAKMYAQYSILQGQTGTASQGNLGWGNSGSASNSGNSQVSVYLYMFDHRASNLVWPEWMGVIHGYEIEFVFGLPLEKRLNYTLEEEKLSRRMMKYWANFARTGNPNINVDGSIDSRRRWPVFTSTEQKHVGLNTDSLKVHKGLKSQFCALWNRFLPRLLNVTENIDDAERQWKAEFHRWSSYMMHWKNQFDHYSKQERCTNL"},
  "source": "BindingDB's records for doi:10.3109/14756360903027816",
  "about": "(The University of Montana, 2010)",
  "target": "Acetylcholinesterase (Electrophorus electricus, UniProt O42275)",
  "experiment": "AChE Assay",
  "conditions": "pH 7.6; 20 °C",
  "description": "The inactivation of AChEs was determined using a colorimetric assay [Ellman et al., Biochem. Pharmacol., 7:88-95]. […] The inhibition of rMAChE and EEAChE by compounds 1-7 was determined as follows. DTNB solution and a solution of AChE yielding a 0.1 Abs unit/min rate in PBS (2.80 mL; pH 7.6) were placed in a cuvette at 20°C. To this solution was added either: (a) 10 μL of ACN as the control, or (b) 10 μL of ligand solution (10 mM in ACN). After 6 min incubation, the remaining enzyme activity was determined by adding 20 μL aliquots of the ATCh-I solutions and the hydrolysis rate was monitored at 412 nm over a period of 10 min ( 15 s intervals). The final concentrations of the reactants during enzyme assay were: 0.33 mM DTNB, 0.59 mM ATCh-I, 0.58 mM NaHCO3, and 0.05 mM inhibitor.",
  "data": [
    {"molecule": "C#CCNS(=O)(=O)c1ccc(-c2c3ccc(=[N+](CC)CC)cc-3oc3cc(N(CC)CC)ccc23)c(S(=O)(=O)[O-])c1", "note": "[Lissamine propargyl sulfonamide (6)]", "values": [
      {"measurement": "IC50", "value": 3.57, "unit": "µM"}
    ]},
    {"molecule": "C#CCNS(=O)(=O)c1ccc(C2=c3cc4c5c(c3Oc3c2cc2c6c3CCCN6CCC2)CCC[N+]=5CCC4)c(S(=O)(=O)[O-])c1", "note": "[Texas Red propargyl sulfonamide (7)]", "values": [
      {"measurement": "IC50", "value": 10.4, "unit": "µM"}
    ]}
  ]
}
